Values of other authors as cited in patent publication US20150376254A1, “GAMMA-MSH ANALOGUES” (TXP Pharma GmbH, priority 2014, published 2015).

Protein sequences, listed by entry. Tags and fused reporters are not part of them.
UniProt P32245, whole entry: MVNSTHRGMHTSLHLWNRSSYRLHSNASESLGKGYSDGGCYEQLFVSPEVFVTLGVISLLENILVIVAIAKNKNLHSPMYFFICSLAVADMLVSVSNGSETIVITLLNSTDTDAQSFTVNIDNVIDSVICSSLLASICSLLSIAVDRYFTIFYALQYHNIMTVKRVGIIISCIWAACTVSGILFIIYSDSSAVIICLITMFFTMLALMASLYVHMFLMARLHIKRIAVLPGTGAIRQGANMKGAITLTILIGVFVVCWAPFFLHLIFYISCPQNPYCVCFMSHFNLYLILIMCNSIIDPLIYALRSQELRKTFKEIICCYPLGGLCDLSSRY

Target: MC4r (Homo sapiens, UniProt P32245)
Details: relative to MC1r and MC5r; J. Med. Chem. 2005, 48, 1839-1848

For γ-MSH, the “binding to the MC4r” value is given as “somewhat better”.
